Results on 1 compound are retold here after ChEMBL document CHEMBL2176978, “Fragment-based discovery of bromodomain inhibitors part 2: optimization of phenylisoxazole sulfonamides” (J Med Chem, 2012).

The chains behind the UniProt entries cited, without tags or fusion partners.
UniProt Q15059, whole entry: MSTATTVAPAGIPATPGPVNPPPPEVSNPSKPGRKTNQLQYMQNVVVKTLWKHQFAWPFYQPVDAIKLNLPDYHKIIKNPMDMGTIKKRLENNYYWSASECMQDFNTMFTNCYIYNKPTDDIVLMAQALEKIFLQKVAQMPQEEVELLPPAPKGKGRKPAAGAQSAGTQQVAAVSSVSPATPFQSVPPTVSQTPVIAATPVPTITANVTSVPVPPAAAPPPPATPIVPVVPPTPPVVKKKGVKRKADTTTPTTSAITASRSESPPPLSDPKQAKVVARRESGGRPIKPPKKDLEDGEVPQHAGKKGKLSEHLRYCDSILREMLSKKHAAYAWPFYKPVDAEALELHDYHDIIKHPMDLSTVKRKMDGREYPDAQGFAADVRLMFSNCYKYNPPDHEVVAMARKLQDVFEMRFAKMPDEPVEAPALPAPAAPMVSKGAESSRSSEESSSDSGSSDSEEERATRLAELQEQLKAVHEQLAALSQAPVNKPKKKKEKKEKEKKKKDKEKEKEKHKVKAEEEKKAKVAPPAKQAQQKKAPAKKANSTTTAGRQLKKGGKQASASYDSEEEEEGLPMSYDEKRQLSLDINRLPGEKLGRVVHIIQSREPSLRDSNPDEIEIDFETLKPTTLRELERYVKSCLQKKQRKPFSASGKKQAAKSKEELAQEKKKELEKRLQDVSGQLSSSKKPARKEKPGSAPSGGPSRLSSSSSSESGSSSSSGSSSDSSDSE

Experiment [1] concerns the target T1, Bromodomain-containing protein 3 (Homo sapiens, UniProt Q15059). As to the kind of experiment: Binding affinity to His6-tagged BRD3 expressed in Escherichia coli by isothermal colorimetric analysis.
The target in experiment [2] is T1, Bromodomain-containing protein 3. As to the kind of experiment: Inhibition of His6-tagged BRD3 expressed in Escherichia coli assessed as inhibition of binding to SGRG-K(Ac)-GG-K(Ac)-GLG-K(Ac)-GGA-K(Ac)-RHGSGSK-biotin after 1 hr by TR-FRET assay. Background: Time-resolved FRET reads energy transfer from a long-lived donor to a nearby acceptor.
For experiment [3] the target is unchanged. The experiment can be described thus: Inhibition of His6-tagged BRD3 expressed in Escherichia coli after 60 mins by fluorescence anisotropy assay. (In general: Polarisation of emitted light reports the rotation of a fluorescent probe.)

As for `Cc1nnc2n1-c1ccccc1C(c1ccccc1)=N[C@H]2NC(=O)OCc1ccccc1`, binding in experiment [1] was put at a Kd of 0.019 µM. The 50% inhibitory concentration (IC50) came to 0.22 µM in experiment [2] and 0.35 µM in experiment [3].

For orientation: Kd means the equilibrium constant for the complex coming apart. The low end stands for tighter binding, the high end for weaker binding. As usually defined, the IC50 is the midpoint of a concentration-inhibition curve.
